Molecules are shown by their SMILES. The list shows a part of the results, in another mix than the full data. The source holds several records for some structures; these can differ, active in one and inactive in another. Activity calls are given as the source filed them. How the source made its calls: active means hit-call score of the fitted dose curve at least 0.9, where 1 is the maximum; inactive means score below 0.9.

The assay can be described thus: ATG_PPRE_CIS: Attagene CIS-FACTORIAL HepG2 Assay for human Peroxisome Proliferator-activated Response Element (PPRE) (AID 2282958). As to conditions: HepG2 PPRE cis-element reporter, Attagene transcription factor profiling; actives raise or lower the signal.
Consider `CCN(CCN)c1cccc(C)c1`, for which the outcome was inactive.

In the case of `CC(=O)CCc1ccccc1`, the outcome was inactive.

A word on the AC50: it is the concentration giving half of the maximal activity seen. With `CCCCCCCCCCCC`, the call was inactive and the AC50 is active: 2.7 µM.

Turning to `CCCCCCCCCO`, the molecule was classed as inactive.

As for `C=CCCCCCCCCOC(C)=O`, the result was inactive.

Take `OCc1ccccc1`: the AC50 is active: 34.6 µM and the molecule was called inactive.

Consider `CCN(CC)CCOC(=O)c1ccc(N)cc1`, for which the molecule was classed as inactive.

In the case of `N#CC1(N)CCCCC1`, the molecule was classed as inactive.

`COCCCOc1ccnc(CS(=O)c2nc3ccccc3[nH]2)c1C` (stereo unspecified): the outcome was inactive.

In the case of `O=C1NC(=O)c2ccccc21`, the outcome was inactive.

As to `CC(C)(C)C(=O)C=Cc1ccc(Cl)cc1`, the AC50 was active: 26.2 µM.

Turning to `OCC(CO)(CO)COCC(CO)(CO)CO`, the result was inactive.

Regarding `CCC1(c2ccccc2)C(=O)NCNC1=O`, the call was inactive.

For the molecule `CCCCc1nc2cccnc2n1Cc1ccc(-c2ccccc2-c2nnn[nH]2)cc1`, the AC50 was active: 2.56 µM.

With `C=C(C)c1cccc(C(C)(C)N=C=O)c1`, the molecule was classed as inactive.

Take `Cc1cc(CCN2CCN(c3nsc4ccccc34)CC2)cc2c1NC(=O)CC2(C)C`: the molecule was classed as inactive.

With `CC1=NN(c2cc(Cl)c(S(=O)(=O)O)cc2Cl)C(=O)C1N=Nc1ccc(S(=O)(=O)O)cc1` (stereo unspecified), the call was inactive.

Turning to `CC(=O)S[C@H](C(=O)N[C@H]1Cc2ccccc2[C@H]2CCC[C@@H](C(=O)O)N2C1=O)C(C)C`, the result was inactive.

For the molecule `COCC(C)O` (stereo unspecified), the result was inactive.

Regarding `O=C(O)c1cc(C(=O)O)cc([N+](=O)[O-])c1`, the outcome was inactive.

In the case of `N#Cc1cscn1`, the result was inactive.

`CC(=O)Nc1ccc(CC(=O)O)cc1`: the call was inactive.

Consider `C[C@](N)(Cc1ccc(O)c(O)c1)C(=O)O`, for which the molecule was classed as inactive.

Regarding `C=CCCCCCCCCC(=O)O`, the half-maximal activity concentration (AC50) was active: 43.5 µM.

As to `CC(C)(c1ccccc1)c1ccc(Nc2ccc(C(C)(C)c3ccccc3)cc2)cc1`, the outcome was inactive.

With `CCOc1ccc(NC(N)=O)cc1`, the molecule was classed as inactive.

For `Cc1cc(S(=O)(=O)O)ccc1N=Nc1c(O)ccc2ccccc12`, the molecule was called inactive.

Regarding `CCOCCO`, the molecule was classed as inactive.

Regarding `COC(=O)c1ccc(C(=O)OC)cc1`, the molecule was classed as inactive.

In the case of `CCOC(=O)CCCCCCCCC(=O)OCC`, the call was inactive.

For `Cc1cc(=O)n(-c2ccccc2)n1C`, the outcome was inactive.

On to `C=C[Si](C)(C)O[Si](C)(C)C=C`, for which the call was inactive.

For the molecule `OC1OC[C@@H](O)[C@H](O)[C@H]1O` (stereo partly specified), the result was inactive.

On to `CCOC(=O)CC(CC(=O)OCC)(OC(C)=O)C(=O)OCC`, for which the call was inactive.

Take `CC(C)(C)c1ccc(O)c(C(C)(C)C)c1`: the molecule was classed as inactive.

With `C=COCC1CCC(COC=C)CC1` (stereo unspecified), the call was inactive.

Turning to `CC(C)C1CCC(O)CC1` (stereo unspecified), the molecule was classed as inactive.

Regarding `CCOC(=O)Cc1cccc2ccccc12`, the AC50 was active: 75.4 µM.

For the molecule `S=C(S)NCCNC(=S)S`, the outcome was inactive.
